# According to PubChem BioAssay (EPA / NIEHS):
# Only a part is listed here, and it is no random draw. The source made the active and inactive calls. The calls were made as follows: active = hit-call score of the fitted dose curve at least 0.9, where 1 is the maximum; inactive = score below 0.9.
# Assay: ATG_Oct_MLP_CIS: Attagene CIS-FACTORIAL HepG2 Assay for human Octamer-Binding Transcription Factor (Oct) (AID 2282993)
# Settings: HepG2 Attagene cis-factorial Oct reporter, mRNA; actives raise or lower the signal
# Procedure: ATG_CIS is a cell-based, multiplexed-readout assay that uses HepG2, a human liver cell line, with measurements taken at 24 hours after chemical dosing in a 24-well plate.ATG_Oct_MLP_CIS is one of 52 assay component(s) measured or calculated from the ATG_CIS assay. It is designed to make measurements of mRNA induction, a form of inducible reporter, as detected with fluorescence intensity signals by Reverse transcription polymerase chain reaction (RT-PCR) and Capillary electrophoresis technology.Data from the assay component ATG_Oct_MLP_CIS was analyzed into 1 assay endpoint. This assay endpoint, ATG_Oct_MLP_CIS, was analyzed with bidirectional fitting relative to DMSO as the negative control and baseline of activity. Using a type of inducible reporter, measures of mRNA for gain or loss-of-signal activity can be used to understand the reporter gene at the transcription factor-level as they relate to the gene POU2F1. Furthermore, this assay endpoint can be referred to as a primary readout, because this assay has produced multiple assay endpoints where this one serves a reporter gene function. To generalize the intended target to other relatable targets, this assay endpoint is annotated to the dna binding intended target family, where the subfamily is POU domain protein.
# Human liver HepG2 cells are transiently transfected with multiple reporter transcription units (MRTUs) in 6-well plates using FuGene 6 reagent (Roche; 3 ml FuGene/1 mg DNA). The MRTU constructs are regulated by a cis-regulating element (promoter). […] A major difference between the CIS and TRANS system is that in CIS activities of endogenous TFs are measured, whereas the TRANS assay evaluates changes in activities of exogenous, chimeric NR-Gal4 proteins. […] At the end of 24 hour incubation, total RNA was isolated using TriZol reagent (Invitrogen). The isolated RNA is then reverse-transcribed using oligo(dT) primer and Mo-MLV reverse transcriptase (Invitrogen) with DNAse I (Ambion) treatment for 30 min. The one-tenth of the produced cDNA was amplified by PCR using Taq DNA polymerase (Invitrogen) and two reporter sequence-specific primers. The PCR products were fluorescently labeled by primer extension with 6-arboxyfluorescein (6-FAM) 5'-labeled reporter sequence-specific primer (2 min at 95 C, 20 s at 68 C and 10 min at 72 C) and these products were digested with 5U of HpaI (New England Biolabs) for 2h at 37 C. The fragments were purified using Qiaquick PCR columns (Qiagen), analyzed on an ABI 3130xL genetic analyzer (Applied Biosystems) with peak positions identified by using a set of X-rhodamine (ROX)-labeled MapMarker1000 molecular weight standards (BioVentures). The raw capillary electrophoresis data was processed using Attagraph software (Attagene).
SMILES,outcome,AC50
N#CSc1ccc([N+](=O)[O-])cc1[N+](=O)[O-],inactive,
Cc1cc([N+](=O)[O-])cc([N+](=O)[O-])c1O,,active: 100 µM
CC(C)OP(=S)(OC(C)C)SCCNS(=O)(=O)c1ccccc1,inactive,
CN(C(=O)Cc1cccc2occc12)[C@H]1CC[C@@]2(CCCO2)C[C@@H]1N1CCCC1,inactive,
O=[N+]([O-])c1ccc([N+](=O)[O-])cc1,,active: 62.9 µM
ClP(Cl)c1ccccc1,inactive,
O=[P+](Oc1ccccc1)Oc1ccccc1,inactive,
O=P(Cl)(Oc1ccccc1)Oc1ccccc1,inactive,
O=[p+]1oc2ccccc2c2ccccc21 (configuration not stated),inactive,
O=[As]c1ccccc1 (configuration not stated),,active: 0.31 µM
O=C(Cl)OCCOC(=O)Cl,inactive,
CCCCO[P+](=O)OCCCC,inactive,
CCCCC(CC)CO[P+](=O)OCC(CC)CCCC (configuration not stated),inactive,
CCCCOP(OCCCC)OCCCC,inactive,
CC(C)CCCCCCCOP(OCCCCCCCC(C)C)Oc1ccccc1,inactive,
O=C1C2CC=CCC2C(=O)N1SC(Cl)(Cl)C(Cl)Cl (configuration not stated),inactive,
O=C(Cl)Oc1ccccc1,inactive,
